The values that follow are results of earlier work, collected in patent publication US5366980A, “Use of dextromethorphan and an oxidase inhibitor to treat dermatitis” (priority 1993, dated 1994).

In this series the test system is debrisoquin hydroxylase (sparteine monooxygenase). The conditions noted are these: Inaba et al 1985; cited from earlier work.

As for `CN(C)CCOC(c1ccccc1)c1ccccc1` [diphenhydramine], the “In vitro activity in inhibiting debrisoquin hydroxylase” value is “significant in vitro activity”.
